Only a part is listed here, and it is no random draw. Activity calls are given as the source filed them. No stated cut-off is given here; in the data, active means activation above about 5% (passing the limit was not always enough); inactive means the rest.

Sequences of proteins named here, by UniProt entry; tags and fusion partners are left off.
UniProt O43603, whole entry: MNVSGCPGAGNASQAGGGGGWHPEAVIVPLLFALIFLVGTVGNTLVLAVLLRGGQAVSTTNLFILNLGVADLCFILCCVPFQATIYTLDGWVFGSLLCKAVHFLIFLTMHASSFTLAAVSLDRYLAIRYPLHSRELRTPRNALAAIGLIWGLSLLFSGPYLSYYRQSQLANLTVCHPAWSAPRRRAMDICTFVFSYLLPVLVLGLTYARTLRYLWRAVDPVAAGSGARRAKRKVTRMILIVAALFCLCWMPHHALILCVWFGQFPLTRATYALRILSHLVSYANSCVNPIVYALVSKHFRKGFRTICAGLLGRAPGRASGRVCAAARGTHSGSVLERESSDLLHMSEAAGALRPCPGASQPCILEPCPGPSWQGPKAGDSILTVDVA

This test deals with Galanin receptor type 2 (Homo sapiens) (UniProt O43603). The experiment in a line: GALR2 receptor agonists, primary screen, cell-based (AID 803).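 Further: 0% = vehicle buffer wells and 100% = reference agonist at full effect.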 Particulars: GALR2-expressing cells, agonist activation read-out; at 5.6 µM; hits give high values.
`CN1CCN(CCOC(=O)C(O)(c2ccccc2)c2ccccc2)CC1`: the activation is inactive: -0.58%.

In the case of `O=C(NCC1(N2CCOCC2)CCCCC1)c1cc(=O)[nH]c2ccccc12`, the activation was inactive: -1.48%.

With `N#CC1(Nc2ccccc2)CCN(CCc2ccccc2)CC1`, the activation was inactive: -1.49%.

`CN1CCC(Nc2cccc(F)c2)CC1`: the activation is inactive: -1.07%.

Take `O=C(NCC1(N2CCOCC2)CCCCC1)c1cc2ccccc2o1`: the activation was inactive: -0.23%.

Turning to `O=C(OC1CN2CCC1CC2)C1c2ccccc2Oc2ccccc21` (stereo not drawn), the activation is inactive: -0.45%.

On to `COc1ccc(NC2CCN(CCc3ccccc3)CC2)c(OC)c1`, for which the activation is inactive: -2.3%.

Regarding `CCN1CCC(Nc2cccc(F)c2)CC1`, the activation was inactive: -1.88%.

Consider `CCC(CO)(C(=O)OC1CN2CCC1CC2)c1ccccc1` (stereo not drawn), for which the activation was inactive: 0.19%.

On to `CCOc1ncccc1C(=O)NCC1(N2CCOCC2)CCCCC1`, for which the activation was inactive: 0.95%.

For `N/C(=N\O)c1c(N)no[n+]1[O-]`, the activation was inactive: -1.05%.

For `O=C(OC1CN2CCC1CC2)C1c2ccccc2C=Cc2ccccc21` (stereo not drawn), the activation was inactive: -0.94%.

With `c1ccc(CN2CCC(Nc3ccccc3)CC2)cc1`, the activation is inactive: -3.05%.

(Values after PubChem BioAssay AID803 (The Scripps Research Institute Molecular Screening Center, 2007).)
